Data taken from article PMC5501099, “Ivermectin susceptibility and sporontocidal effect in Greater Mekong Subregion Anopheles” (Malaria Journal, 2017).

Experiment: Population pharmacokinetic model of ivermectin in healthy Thai volunteers
Type: in vivo, human
Details: single oral 200 µg/kg, centred on 55 kg
Description: Frequent ivermectin plasma concentrations were collected in 23 healthy Thai volunteers after a standard 200 µg/kg dose. Ivermectin concentrations were transformed into their natural logarithms and characterized using nonlinear mixed-effects modelling in NONMEM version.7.3 (Icon Development Solution, Ellicott City, MD, USA). The first-order conditional estimation method with interaction was used throughout model development. Model diagnostics and automation were performed using Xpose version 4.0 [25], Pirana and Pearl-speaks-NONMEM (PsN; version 3.6.0). The objective function value (OFV; calculated by NONMEM as proportional to −2 × loglikelihood of data) was used to discriminate between hierarchical models. […] Models were assessed using standard goodness-of-fit and simulation-based diagnostics (i.e. numerical and visual predictive checks using 2000 simulations). The robustness of the final model was evaluated by bootstrapping (n = 1000).
Different disposition models (one-, two- and three-compartment models) and absorption models (first-order and transit models) were evaluated to describe the pharmacokinetic structural model of ivermectin. […] The effect of body size was evaluated using an allometric function (centred on the medium trial weight of 55 kg), scaling clearances with an exponent of ¾ and volumes with an exponent of 1. […]

ivermectin
VC/F apparent volume of distribution of central compartment, population estimate (%RSE): 115 (4.38) l
VP/F apparent volume of distribution of peripheral compartment, population estimate (%RSE): 157 (6.59) l
